Biological target: PRC2-EED-I363M (Homo sapiens, UniProt O75530+Q15910, I363M)
Assay: Fluorescence polarization binding assay
Conditions: 40 nM labelled ligand; top PRC2-EED-I363M concentration 2 µM
Procedure: The binding experiments were performed in a total volume of 10 μl binding buffer (20 mM Tris pH 8.0 supplemented with 0.01% Triton X-100 and 5 mM DTT) in 384-well black polypropylene PCR plates (Axygen, Cat. PCR-384-BK). The binding of FAM-labelled ligand, 8 (UNC6419) to WT- and EED-I363M mutant trimeric PRC2 complexes was evaluated by monitoring the fluorescence polarization (FP) signal in the presence of 40 nM FL-UNC6419. FP was performed using a Biotek Synergy 4 after 30 minutes incubation at ambient temperature using excitation and emission wavelengths of 485 nm and 528 nm, respectively.
PRC2-WT (µM) PRC2-WT (µM) PRC2-WT (µM) PRC2-W T (µM) PRC2-WT (µM)
PRC2-Mutant (µM) PRC2-Mutant (µM) PRC2-Mutant (µM) PRC2-Mutant (µM) PRC2-Mutant (µM)
Supplementary Figure S8. Evaluating binding of 8 (UNC6419) to WT- and EED-I363M mutant
trimeric PRC2 complexes. Binding of (A) 8, a FAM-labelled ligand, to both WT and mutant
trimeric PRC2 complexes were assessed by (B) monitoring the changes in fluorescence
polarization signal under specified conditions. Increase in fluorescence polarization signal was
observed when increasing concentrations of wild-type, but not mutant, PRC2 (EED/EZH2/SUZ12)
was tested in the presence of 40 nM of 8. All Kd values are presented in the above table. Assays
were performed in triplicate in 20 mM Tris-HCl pH 8.0, 5 mM DTT, 0.01% Triton X-100. Data […]

Chains of the proteins cited; added tags and fusions are not shown. Residues count along the entry.
UniProt O75530, whole entry I363M: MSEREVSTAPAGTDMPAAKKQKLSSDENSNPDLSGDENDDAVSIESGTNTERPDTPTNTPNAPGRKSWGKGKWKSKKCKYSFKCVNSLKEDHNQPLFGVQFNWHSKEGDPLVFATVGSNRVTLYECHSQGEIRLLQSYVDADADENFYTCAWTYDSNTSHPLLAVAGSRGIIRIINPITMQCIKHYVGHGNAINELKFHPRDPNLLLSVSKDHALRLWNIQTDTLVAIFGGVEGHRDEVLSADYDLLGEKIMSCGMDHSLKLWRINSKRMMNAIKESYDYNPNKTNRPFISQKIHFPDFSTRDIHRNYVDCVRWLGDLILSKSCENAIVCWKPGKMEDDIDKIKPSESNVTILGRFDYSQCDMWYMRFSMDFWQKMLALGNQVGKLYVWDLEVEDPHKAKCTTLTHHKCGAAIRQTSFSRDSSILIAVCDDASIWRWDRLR
UniProt Q15910, 1-751 isoform 2: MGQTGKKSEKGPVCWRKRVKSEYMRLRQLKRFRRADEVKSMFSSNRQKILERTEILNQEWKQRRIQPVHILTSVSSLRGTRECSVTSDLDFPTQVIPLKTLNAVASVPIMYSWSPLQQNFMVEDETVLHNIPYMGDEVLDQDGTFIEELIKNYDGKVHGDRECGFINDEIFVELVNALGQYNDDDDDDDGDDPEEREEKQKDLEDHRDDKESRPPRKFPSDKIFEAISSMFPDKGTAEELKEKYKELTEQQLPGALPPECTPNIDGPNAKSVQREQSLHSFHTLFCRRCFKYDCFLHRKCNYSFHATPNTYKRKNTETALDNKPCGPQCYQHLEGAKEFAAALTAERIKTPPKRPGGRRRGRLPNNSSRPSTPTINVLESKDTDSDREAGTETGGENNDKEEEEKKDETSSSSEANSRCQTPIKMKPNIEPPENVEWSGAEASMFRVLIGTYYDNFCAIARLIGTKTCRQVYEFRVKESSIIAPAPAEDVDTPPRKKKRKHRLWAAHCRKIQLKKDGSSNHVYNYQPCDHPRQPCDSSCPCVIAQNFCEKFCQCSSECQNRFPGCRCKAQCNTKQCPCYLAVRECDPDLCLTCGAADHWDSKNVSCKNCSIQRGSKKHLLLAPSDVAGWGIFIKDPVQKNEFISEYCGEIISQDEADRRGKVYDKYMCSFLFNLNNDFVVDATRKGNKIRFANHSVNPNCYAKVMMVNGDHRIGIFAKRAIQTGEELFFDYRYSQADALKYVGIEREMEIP
UniProt Q15022, whole entry partner: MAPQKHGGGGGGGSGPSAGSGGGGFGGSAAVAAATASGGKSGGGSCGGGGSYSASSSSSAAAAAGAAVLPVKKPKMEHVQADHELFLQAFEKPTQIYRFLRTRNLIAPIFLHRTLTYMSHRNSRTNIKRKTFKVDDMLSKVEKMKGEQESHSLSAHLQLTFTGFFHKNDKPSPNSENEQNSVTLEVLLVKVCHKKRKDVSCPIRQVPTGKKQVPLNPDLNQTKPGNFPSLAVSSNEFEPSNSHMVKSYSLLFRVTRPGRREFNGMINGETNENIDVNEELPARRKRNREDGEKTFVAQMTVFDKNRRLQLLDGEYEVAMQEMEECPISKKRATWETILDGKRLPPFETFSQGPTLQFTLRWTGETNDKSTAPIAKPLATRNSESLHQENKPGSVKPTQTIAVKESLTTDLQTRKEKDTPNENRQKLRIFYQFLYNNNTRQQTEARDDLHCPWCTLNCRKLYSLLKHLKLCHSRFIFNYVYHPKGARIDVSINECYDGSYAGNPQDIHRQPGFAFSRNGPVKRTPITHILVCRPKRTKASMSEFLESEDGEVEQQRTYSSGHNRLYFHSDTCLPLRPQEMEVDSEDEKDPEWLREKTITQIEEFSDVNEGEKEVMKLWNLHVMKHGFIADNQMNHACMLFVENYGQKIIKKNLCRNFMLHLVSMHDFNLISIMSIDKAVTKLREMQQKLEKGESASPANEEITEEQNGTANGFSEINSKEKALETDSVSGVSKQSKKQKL

- binding to PRC2-EED-I363M: no binding was detected
Structure (SMILES): CC(C)C[C@H](NC(=O)[C@H](Cc1ccccc1)NC(=O)[C@H](CCCC[N+](C)(C)C)NC(=O)[C@H](CCCCN)NC(=O)[C@@H]1CCCN1)C(=O)NCCC(=O)NCCC(=O)N(CC(N)=O)Cc1cn(CCCNC(=O)c2ccc(-c3c4ccc(=O)cc-4oc4cc(O)ccc34)c(C(=O)O)c2)nn1
